The results in this text go back to patent publication US20050131051A1, “2-3-disubstituted quinuclidiness as modulators of monoamine transporters and theraperutic and diagnostic methods based thereon” (priority 2000, published 2005).

Protein sequences, listed by entry. Tags and fused reporters are not part of them. Residues count along the entry.
UniProt Q63380, 1-617: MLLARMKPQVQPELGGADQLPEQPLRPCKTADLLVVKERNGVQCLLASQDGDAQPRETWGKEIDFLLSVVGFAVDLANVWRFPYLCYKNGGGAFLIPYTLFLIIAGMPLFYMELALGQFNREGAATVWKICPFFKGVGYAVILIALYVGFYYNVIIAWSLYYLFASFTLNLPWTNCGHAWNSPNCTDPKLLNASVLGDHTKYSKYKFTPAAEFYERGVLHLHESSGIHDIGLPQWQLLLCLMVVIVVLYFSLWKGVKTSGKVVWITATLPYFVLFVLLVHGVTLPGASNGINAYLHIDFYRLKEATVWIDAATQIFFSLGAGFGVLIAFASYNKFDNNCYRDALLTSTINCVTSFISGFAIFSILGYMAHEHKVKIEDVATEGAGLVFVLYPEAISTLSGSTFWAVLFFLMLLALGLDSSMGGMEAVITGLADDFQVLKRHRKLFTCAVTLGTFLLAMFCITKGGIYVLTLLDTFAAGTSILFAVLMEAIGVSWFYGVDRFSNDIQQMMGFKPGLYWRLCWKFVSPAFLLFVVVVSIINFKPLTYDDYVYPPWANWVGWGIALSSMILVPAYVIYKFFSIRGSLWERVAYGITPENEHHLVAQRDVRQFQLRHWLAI

This test concerns the target T1, norepinephrine transporter (Rattus norvegicus, UniProt Q63380).
T1 construct: using synaptosomes prepared from rat midbrain and parietal/occipital cortex, respectively; from tissue; host or cells: rat parietal/occipital cortex synaptosomes
The test can be described thus: Synaptosomal uptake of [3H]NE. It counts as biochemical. Conditions: Ki (nM) NE, synaptosomes from rat parietal/occipital cortex; mean ± standard error or range of 2-3 experiments. As to the method: IC50 values were determined by a computer assisted, iterative fit to a four-parameter sigmoidal equation (ALLFIT). These values were then converted to Ki values according to the Cheng-Prusoff equation assuming classical competitive inhibition. Preincubation of the drug and synaptosomes at 37° C. for 30 min was used to approximate equilibrium conditions as necessary to satisfy the requirements of the Cheng-Prusoff equation.
The effect of candidate compounds in antagonizing dopamine high-affinity uptake was determined using a method previously employed. For [^3H]DA uptake, dissected rat striata were homogenized with a Teflon-glass pestle in ice-cold 0.32 M sucrose and centrifuged for 10 mm at 1000×g. The supernatant was centrifuged at 17,500×g for 20 mm. This P2 synaptosomal pellet was resuspended in 30 volumes of ice-cold modified KRH buffer. An aliquot of the synaptosomal suspension was preincubated with the buffer and drug for 30 mm at 37° C., and uptake initiated by the addition of [^3H]dopamine (5 nM, final conc.). After 5 mm, uptake was terminated by adding 5 ml of cold buffer containing glucosamine as a substitute for NaCl and then finally by rapid vacuum filtration over GF-C glass fiber filters, followed by washing with two 5 ml volumes of ice-cold, sodium-free buffer. Radioactivity retained on the filters was determined by liquid scintillation spectrometry. […]

For orientation: Ki means a measure of affinity in units of concentration, obtained from inhibition or displacement. Higher therefore signals a looser hold on the target. For `COC(=O)[C@H]1[C@@H](OC(=O)c2ccccc2)C[C@@H]2CC[C@H]1N2C` [R-cocaine (1), cocaine, reference compound], affinity was put at a Ki of 108 ± 4 nM.
